The list shows a part of the results, in another mix than the full data. The source made the active and inactive calls.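 How the source made its calls: active means growth inhibition above a set limit, 3 SD over mean compound inhibition, in both replicates (cut at about 43% in these data); inconclusive means above the limit in only one replicate; inactive means at or below the limit in both replicates.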
Assay: S. cerevisiae growth inhibition in restrictive medium, OD615, pilot screen, restrictive growth control, yeast lifespan reduction project (AID 706)
Conditions: OD615, 48 h, at 10 µM, active compounds read high
Method in brief: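 Assay system – genetically modified Saccharomyces cerevisiae, DeaD replicative lifespan assay strain · Medium – CSMM-D glucose medium · Doses – 10 µM compound, 0.25% DMSO · Times – 4 h pre-incubation, 48 h exposure at 30 °C · Signal – optical density at 615 nm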

Row | SMILES | growth inhibition
1 | Cc1ccc(C)c(NP(C)(=O)Oc2ccccc2)c1 (stereo not given) | inactive: -16.2%
2 | CP(=O)(NC(=O)Nc1ccccc1)Oc1ccccc1 (stereo not given) | inactive: -15.4%
3 | Cc1ccc(NP(C)(=O)Oc2ccccc2)c(C)c1 (stereo not given) | inactive: -1.1%
4 | CP(=O)(Oc1ccccc1)N1CCOC1=O (stereo not given) | inactive: -16.2%
5 | CP(=O)(Nc1ccc2c(c1)OCCO2)Oc1ccccc1 (stereo not given) | inactive: -2.07%

From PubChem BioAssay AID706 (SRMLSC, 2007)
